Assay: Pharmacokinetics of sumatriptan in rats (serum, LCMS)
Details: rat, SC (subcutaneous injection)

Q: For `CNS(=O)(=O)Cc1ccc2[nH]cc(CCN(C)C)c2c1` [Sumatriptan, sumatriptan], which tmax is on record?
A: 5 min

Reference: patent EP3536368B1, “DRY POWDER INHALER COMPRISING A SEROTONIN RECEPTOR AGONIST AND A DIKETOPIPERAZINE FOR TREATING MIGRAINES” (MannKind Corporation, priority 2010, dated 2012)
